How the values were obtained:
Muscarinic = Muscarinic affinity binding (3H-PrBCM, whole brain P2 fraction); design: species or system Rats; settings: displacement of specific 3H-PrBCM binding by 50%; rat brain, pH 7.4, 30° C.; read-out: Muscarine affinity (IC50)
Protocol: Muscarinic affinity binding
Sodium thiosulphate 10 mM (2.48 g/1000 ml) ^3 H-PrBCM (N-2'-chloroethyl-N-[2", 3"-^3 H2 ] propyl-2-aminoethylbenzilate,spec. act. ~28 Ci/mM).
A rat is killed by a blow on the head and exsanguinated. The whole brain is removed and homogenized in 10 volumes of ice cold 0.32 M sucrose with a hand homogenizer. The homogenate is centrifuged at 600 g for 10 minutes (4° C.) and the pellet discarded. The supernatant is then centrifuged at 25000 g for 55 minutes (4° C.). The pellet fraction (P2) is resuspended in the same volume of 0.32 M sucrose as previously used and stored on ice.
The aziridinium ion of ^3 H-propylbenzilyllcholine mustard (^3 H-PrBCM) is prepared by cyclization at a concentration of 130 nM in 15 mM Na-phosphate buffer (pH 7.4) for 50 minutes at 20° C. The reaction is terminated by addition of 100 volumes of ice cold buffer.
The incubation is continued for 15 minutes and stopped by addition of 20 ml 100 mM phosphate buffer containing 10 mM sodium thiosulphate. The samples are filtered through Whatman GF/C glass fiber filters and washed with 30 ml ice cold 100 mM phosphate buffer. The filters with synaptosomes are transferred to scintillation vials and the radio-activity measured by liquid scintillation counting after addition of 10 ml Instal-Gel (Packard Inst.). All experiments are performed in triplicate. […]

[1] = Catalepsy wire mesh, rat, max.; format: in vivo, male; settings: catalepsy ED50 (s.c.) / amphetamine antagonism ED50 (i.p.), rats
Protocol: Catalepsy wire mesh, rat, max. (ED50 mg/kg s.c.)
A vertical wire netting (50 cm×49 cm). The meshes (openings) of the netting are square (1 cm×1 cm). The wire diameter is 2 mm.
The animals are labeled and used in groups of five. The test substance is injected subcutaneously (s.c.) (5 ml/kg) at 4 dose levels selected from the fixed dose scale.
The animals are placed in the middle of the vertical wire netting 60, 120, 180, 240, 300 and 360 minutes after injection of the test compound. The animals are considered cetaleptic when they remain immobile during a period of 15 seconds. This cataleptic reaction is designated +. If the rats are "atonic" and passively slides down the wire mesh they are considered not cataleptic. If the animals climb up and down the wire mesh they are nor cataleptic. In both situations the designation - is used.

SMILES	IC50 (Muscarinic) [µM]	Ratio Catalep./Amphetam. antag. [1]
OCCN1CCN(CCC=C2c3ccccc3Sc3ccc(Cl)cc32)CC1 [clopenthixol]	6	1.2
CN(C)CC/C=C1/c2ccccc2Sc2ccc(Cl)cc21 [chlorprothixene]	0.11	0.66
